A short description of experiment [1]: Inhibition of TDP1 SCAN1 mutant (unknown origin) using 5'-(5,6 FAM-[…] C- BHQ1)-3' as substrate measured for every 1 min by fluorescence based assay.
Experiment [2] has as its system A549. The experiment can be described thus: Potentiation of topotecan-induced cytotoxicity against human A549 cells at 1 uM after 72 hrs by MTT assay relative to control. A general note: Tetrazolium dyes change colour on reduction, which living cells bring about.
Experiment [3] deals with A549. The experiment can be described thus: Potentiation of topotecan-induced cytotoxicity against human A549 cells assessed as combination index at 1 uM after 72 hrs by MTT assay.

17 compounds from ChEMBL document CHEMBL4613231 (Bioorg Med Chem, 2020) can be followed below.

Where only a bound is given, the exact number is not on record here.

Usually IC50 stands for the concentration that gives 50% inhibition. In experiment [1], `O=C(NCCc1c[nH]c2ccccc12)c1cc2c([nH]c3ccccc32)c(-c2ccc3c(c2)OCO3)n1` had an IC50 of 17.6 µM.
Still for that read-out and setting: then `O=c1cc(-c2cc3ccccc3oc2=O)c2ccc(OCc3ccccc3Cl)cc2o1`, with 13.9 µM.
For the compound `Cc1c(Cc2ccccc2)c(=O)oc2cc(OCC(=O)N[C@@H](CSCc3ccccc3)C(=O)O)ccc12`, the IC50 in experiment [1] is greater than 100 µM.
Consider `CC(C)C[C@H](N)C(=O)N1CCC(C(=O)N[C@@H](Cc2ccccc2)C(=O)NCc2ccccc2F)CC1`, for which, in experiment [1], the IC50 was greater than 100 µM.
Regarding `CC(C)OCCCNC(=O)c1cc2c([nH]c3ccccc32)c(-c2ccc3c(c2)OCO3)n1`, the IC50 in experiment [1] is greater than 100 µM.
Still for that read-out and setting: the figure for `Cc1c(CC(=O)NC(Cc2ccc(Cl)cc2)C(=O)O)c(=O)oc2c(C)c3occ(-c4ccc(F)cc4)c3cc12` (stereo unspecified) is greater than 100 µM.
In turn, `COc1cccc2cc(-c3cc(=O)oc4cc(OCC(C)=O)ccc34)c(=O)oc12` registered an IC50 in experiment [1] greater than 100 µM.
As to `Cc1oc2c(C)c3oc(=O)c(CC(=O)NCC(=O)O)c(C)c3cc2c1-c1ccccc1`, the IC50 in experiment [1] is greater than 100 µM.
For the compound `O=C(NCCC1=CCCCC1)c1cc2c([nH]c3ccccc32)c(-c2ccc3c(c2)OCO3)n1`, in experiment [1], the IC50 came out at 14.1 µM.
With `Cc1c(CC(=O)N[C@@H](CSCc2ccccc2)C(=O)O)c(=O)oc2c(C)c3occ(-c4ccc(F)cc4)c3cc12`, in experiment [1], half-maximal inhibition (IC50) was put at 25.1 µM. Against the preceding compound, the IC50 is about 1.8-fold higher.
Turning to `CCCc1cc(=O)oc2c(C)c(OCC(=O)NC(Cc3c[nH]c4ccc(O)cc34)C(=O)O)ccc12` (stereo unspecified), the IC50 in experiment [1] is greater than 100 µM.
On the same count and under the same terms, then `Cc1c(CCC(=O)N[C@@H](CSCc2ccccc2)C(=O)O)c(=O)oc2cc3oc4c(c3cc12)CCCC4`, with greater than 100 µM; and `O=c1cc(-c2cc3ccccc3oc2=O)c2ccc(OCc3cccc4ccccc34)cc2o1`, with greater than 100 µM.
Compound `O=c1cc(-c2cc3ccccc3oc2=O)c2ccc(OCc3c(Cl)cccc3Cl)cc2o1` gave an IC50 in experiment [1] of 3.5 µM. For the same compound, the fold change (FC) in the experiment on A549 [2] amounted to 8. Moreover, the CI in the experiment on A549 [3] was 0.2 as printed.
`COc1cccc2cc(-c3cc(=O)oc4c(C)c(OCc5ccc(Cl)cc5)ccc34)c(=O)oc12`: half-maximal inhibition in experiment [1] (IC50) required 6 µM. The fold change (FC) in the experiment with A549 [2] was 4.5. Besides, the CI with A549 [3] was 0.1 as printed.
In experiment [1], `COc1ccc(-c2cc(=O)oc3cc(OCC(=O)N[C@H](C(=O)O)c4ccccc4)ccc23)cc1` showed a concentration for half-maximal inhibition (IC50) greater than 100 µM.
In experiment [1], `O=C(COc1cc2oc(=O)cc(-c3ccccc3)c2cc1Cl)NC[C@H]1CC[C@H](C(=O)O)CC1` registered an IC50 greater than 100 µM.
